Data published in ChEMBL document CHEMBL3259785, “Recent advances in the discovery of small molecules targeting exchange proteins directly activated by cAMP (EPAC)” (J Med Chem, 2014).

Sequences of proteins named here, by UniProt entry; tags and fusion partners are left off. A change or cut given only in a name is not applied to a line headed by its entry.
UniProt Q8WZA2: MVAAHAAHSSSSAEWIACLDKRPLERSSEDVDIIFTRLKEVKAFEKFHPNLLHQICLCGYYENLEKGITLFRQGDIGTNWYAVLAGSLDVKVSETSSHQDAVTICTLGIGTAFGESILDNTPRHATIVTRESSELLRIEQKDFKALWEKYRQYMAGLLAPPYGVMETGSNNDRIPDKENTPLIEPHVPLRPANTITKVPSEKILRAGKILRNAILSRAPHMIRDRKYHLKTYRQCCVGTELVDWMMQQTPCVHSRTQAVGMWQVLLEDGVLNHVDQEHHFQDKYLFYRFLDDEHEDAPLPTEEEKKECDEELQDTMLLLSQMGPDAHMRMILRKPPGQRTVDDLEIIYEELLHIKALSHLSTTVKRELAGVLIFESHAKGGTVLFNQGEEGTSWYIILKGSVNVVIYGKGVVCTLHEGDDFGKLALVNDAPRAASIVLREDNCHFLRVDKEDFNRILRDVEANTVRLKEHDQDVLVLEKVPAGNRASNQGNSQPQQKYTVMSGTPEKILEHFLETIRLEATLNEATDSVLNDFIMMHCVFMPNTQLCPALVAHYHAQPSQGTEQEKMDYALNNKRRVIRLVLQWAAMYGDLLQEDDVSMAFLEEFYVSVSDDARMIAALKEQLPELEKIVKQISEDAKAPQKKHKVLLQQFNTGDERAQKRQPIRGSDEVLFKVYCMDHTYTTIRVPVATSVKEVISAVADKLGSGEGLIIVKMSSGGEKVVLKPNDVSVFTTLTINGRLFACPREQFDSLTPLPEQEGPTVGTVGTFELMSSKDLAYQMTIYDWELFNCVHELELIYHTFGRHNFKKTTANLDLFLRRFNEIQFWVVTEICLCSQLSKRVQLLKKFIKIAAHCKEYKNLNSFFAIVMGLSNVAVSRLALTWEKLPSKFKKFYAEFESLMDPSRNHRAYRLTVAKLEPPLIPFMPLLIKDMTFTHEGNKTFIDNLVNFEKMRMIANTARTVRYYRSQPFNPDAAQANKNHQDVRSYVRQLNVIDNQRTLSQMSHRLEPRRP

Molecular target: Rap guanine nucleotide exchange factor 4 (Homo sapiens, UniProt Q8WZA2)
Assay: Inhibition of EPAC2 (unknown origin)

IC50: 400 nM
Structure (SMILES): Cc1ccc(S(=O)(=O)c2c(C)cc(C)cc2C)cc1
